By UniProt entry, the sequences of proteins in these tests, tags left out.
UniProt P35462, whole entry: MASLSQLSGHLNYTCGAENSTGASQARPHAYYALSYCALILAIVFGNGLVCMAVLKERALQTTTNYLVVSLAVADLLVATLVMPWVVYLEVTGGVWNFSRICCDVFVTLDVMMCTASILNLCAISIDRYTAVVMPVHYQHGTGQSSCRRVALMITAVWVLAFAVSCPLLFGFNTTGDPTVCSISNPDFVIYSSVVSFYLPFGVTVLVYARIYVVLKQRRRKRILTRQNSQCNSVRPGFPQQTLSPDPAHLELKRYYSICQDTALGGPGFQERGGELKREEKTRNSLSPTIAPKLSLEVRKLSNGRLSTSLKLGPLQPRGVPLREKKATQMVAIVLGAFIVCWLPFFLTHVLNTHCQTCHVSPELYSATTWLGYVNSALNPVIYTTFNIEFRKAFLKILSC

In ChEMBL document CHEMBL1129892, “Tetracyclic analogues of [+]-S 14297: Synthesis and determination of affinity and selectivity at cloned human dopamine D3 vs D2 receptors” (Bioorg Med Chem Lett, 1997):

Biological target: D(3) dopamine receptor (Homo sapiens, UniProt P35462)
Experiment: biochemical

| Ki | Compound |
| --- | --- |
| 10 nM | CCCN1CCO[C@@H]2c3cc4c(cc3CC[C@H]21)CCO4 |
| 501 nM | CCCN1CCO[C@@H]2c3cc4c(cc3OC[C@H]21)CCO4 |
